Laboratory results taken from patent EP4653437A2 (Innovo Therapeutics Inc., priority 2023, dated 2024).

By UniProt entry, the sequences of proteins in these tests, tags left out.
UniProt P15428, whole entry: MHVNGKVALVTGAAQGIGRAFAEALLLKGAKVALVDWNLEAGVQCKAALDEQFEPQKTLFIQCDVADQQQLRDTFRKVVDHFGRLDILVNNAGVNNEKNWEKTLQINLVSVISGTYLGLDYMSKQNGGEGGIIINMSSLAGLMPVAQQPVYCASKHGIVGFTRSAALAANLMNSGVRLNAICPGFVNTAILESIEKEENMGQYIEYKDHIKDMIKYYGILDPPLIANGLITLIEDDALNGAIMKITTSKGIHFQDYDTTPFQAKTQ

What was measured:
A549 cells = test: Measurement of PGE2-increasing activity in A549 cells (IL-1β stimulated, PGE2 quantified in supernatant); format: cell-based; settings: concentration of 1 µM of each compound; IL-1β treated A549 cells
human 15-PGDH = human 15-PGDH (Homo sapiens, UniProt P15428); test: Evaluation of 15-PGDH inhibitory activity (fluorescence enzyme assay, NAD+/PGE2); settings: read-out: IC50 value, human 15-PGDH enzyme, fluorescence Vmax

**Q.** How did the “Increased PGE2 production in A549 cells” value (A549 cells) turn out when `Cn1cnc2cc(-c3cccc4c(C(=O)N5CCCCC5)cnn34)cnc2c1=O` was run?
**A.** ++ (PGE2 increasing ability ≥ 1.5)

**Q.** And the IC50 (human 15-PGDH)?
**A.** < 100 nM
